Measurements from patent US20020061838A1, “Peptide pharmaceutical formulations” (priority 2000, published 2002).

Experiment: Tolerability and response after subcutaneous or intravenous delivery of the formulations in humans
Settings: subcutaneous, about 1 mL

CC[C@H](C)[C@H](NC(=O)[C@H](C)NC(=O)[C@H](CC(=O)O)NC(=O)[C@H](C)NC(=O)[C@@H](N)Cc1ccc(O)cc1)C(=O)N[C@@H](Cc1ccccc1)C(=O)N[C@H](C(=O)N[C@@H](CC(N)=O)C(=O)N[C@@H](CO)C(=O)N[C@@H](Cc1ccc(O)cc1)C(=O)N[C@@H](CCCNC(=N)N)C(=O)N[C@@H](CCCCN)C(=O)N[C@H](C(=O)N[C@@H](CC(C)C)C(=O)NCC(=O)N[C@@H](CCC(N)=O)C(=O)N[C@@H](CC(C)C)C(=O)N[C@@H](CO)C(=O)N[C@@H](C)C(=O)N[C@@H](CCCNC(=N)N)C(=O)N[C@@H](CCCCN)C(=O)N[C@@H](CC(C)C)C(=O)N[C@@H](CC(C)C)C(=O)N[C@@H](CCC(N)=O)C(=O)N[C@@H](CC(=O)O)C(=O)N[C@H](C(=O)N[C@@H](CCSC)C(=O)N[C@@H](CO)C(=O)N[C@@H](CCCNC(=N)N)C(=O)N[C@@H](CCC(N)=O)C(=O)N[C@@H](CCC(N)=O)C(=O)NCC(=O)N[C@@H](CCC(=O)O)C(=O)N[C@@H](CO)C(=O)N[C@@H](CC(N)=O)C(=O)N[C@@H](CCC(N)=O)C(=O)N[C@@H](CCC(=O)O)C(=O)N[C@@H](CCCNC(=N)N)C(=O)NCC(=O)N[C@@H](C)C(=O)N[C@@H](CCCNC(=N)N)C(=O)N[C@@H](C)C(=O)N[C@@H](CCCNC(=N)N)C(=O)N[C@@H](CC(C)C)C(N)=O)[C@@H](C)CC)C(C)C)[C@@H](C)O [GRF, GRF(1-44)amide]
response as assessed by the level of peptide drug appearing in the blood: rapid response
